Protein sequences, listed by entry. Tags and fused reporters are not part of them. Residues count along the entry.
UniProt P08581, 1078-1345 limits assumed: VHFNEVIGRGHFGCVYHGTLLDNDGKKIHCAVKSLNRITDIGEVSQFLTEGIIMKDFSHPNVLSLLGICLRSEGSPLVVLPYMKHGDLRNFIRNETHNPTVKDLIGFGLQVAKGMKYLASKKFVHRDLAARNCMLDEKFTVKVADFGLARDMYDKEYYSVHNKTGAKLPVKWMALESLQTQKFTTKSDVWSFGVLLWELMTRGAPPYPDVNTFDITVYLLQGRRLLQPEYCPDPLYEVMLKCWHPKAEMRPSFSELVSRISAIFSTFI

According to patent publication US8071581B2:

Key:
GTL16 = GTL16 cell assay (EC50); format: cell-based; details: read-out: GTL16 EC50; Table 1
[1] = molecular target: MET kinase (c-MET), kinase domain of human Met (Homo sapiens, UniProt P08581); experiment: MET luminescence-based enzyme assay (Kinase-Glo); details: read-out: c-MET IC50; Table 1

EC50 (GTL16): < 100 nM
IC50 [1]: < 100 nM
Structure (SMILES): CCNC(=O)c1ccc(-c2ccc3nnc(Cc4cc5cccnc5cc4C)n3n2)cc1F
